According to article PMC6032384 (International Journal of Molecular Sciences, 2018):
Values joined by “and” are separate entries in the source; they are usually repeats but may differ in a detail not shown here. Identical values can stand only once.

Tested on: HL-60 cells

## O=C1[O][Pt]2([NH][C@@H]3CCCC[C@H]3[NH]2)[O]C1=O [OXA, Oxaliplatin, reference compound]
  Reduction of the number of viable cells: 37.0% and 70.0%
